Laboratory results published in patent US12234211B2, “Cycloolefin substituted heteroaromatic compounds and their use” (HUTCHISON MEDIPHARMA LIMITED, priority 2017, dated 2025).

Sequences of proteins named here, by UniProt entry; tags and fusion partners are left off. Residues count along the entry.
UniProt P48735, 40-452 R140Q limits assumed: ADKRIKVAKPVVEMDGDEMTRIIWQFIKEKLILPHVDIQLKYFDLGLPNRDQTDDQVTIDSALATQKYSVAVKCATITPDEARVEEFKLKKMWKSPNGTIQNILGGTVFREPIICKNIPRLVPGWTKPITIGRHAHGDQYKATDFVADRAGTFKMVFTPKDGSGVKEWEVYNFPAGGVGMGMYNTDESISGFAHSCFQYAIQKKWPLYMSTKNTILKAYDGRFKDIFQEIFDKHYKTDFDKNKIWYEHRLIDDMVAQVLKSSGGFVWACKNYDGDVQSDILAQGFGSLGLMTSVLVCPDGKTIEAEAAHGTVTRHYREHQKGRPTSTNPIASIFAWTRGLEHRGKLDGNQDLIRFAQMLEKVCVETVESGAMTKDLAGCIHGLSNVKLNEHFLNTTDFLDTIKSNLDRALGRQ
UniProt O75874, whole entry R132H: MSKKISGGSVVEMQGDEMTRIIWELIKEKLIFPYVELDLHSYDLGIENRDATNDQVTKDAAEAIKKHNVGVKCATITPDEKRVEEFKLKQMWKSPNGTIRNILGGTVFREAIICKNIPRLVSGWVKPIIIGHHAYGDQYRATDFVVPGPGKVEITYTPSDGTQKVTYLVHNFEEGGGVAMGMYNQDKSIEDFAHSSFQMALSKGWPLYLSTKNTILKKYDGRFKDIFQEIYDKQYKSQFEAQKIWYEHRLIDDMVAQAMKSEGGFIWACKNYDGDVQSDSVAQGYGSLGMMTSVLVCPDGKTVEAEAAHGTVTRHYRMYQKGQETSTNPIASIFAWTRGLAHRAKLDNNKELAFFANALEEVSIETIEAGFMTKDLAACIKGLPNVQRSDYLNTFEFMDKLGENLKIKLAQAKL

What was measured:
IDH2-R140Q = IDH2-R140Q (Homo sapiens, UniProt P48735, R140Q); assay: Fluorescent determination of IDH2-R140Q cell activity (2-HG in U87MGR140Q cells); details: read-out: IC50 (2-HG inhibition), 72 hours incubation
IDH1-R132H = IDH1-R132H (Homo sapiens, UniProt O75874, R132H); assay: Fluorescent determination of IDH1-R132H cell activity (2-HG in U87MGR132H cells); format: cell-based; details: 2-HG inhibition in U87MGR132H cells transfected with IDH1-R132H mutant plasmid
[1] = Metabolic stability test in liver microsomes (rat); format: in vitro ADME; details: percentage of remaining compound after incubation for 30 minutes vs 0 minute; 1 μM compound; 0.5 mg/mL liver microsomes; 37° C.
[2] = Metabolic stability test in liver microsomes (mouse); format: in vitro ADME; details: percentage of remaining compound after incubation for 30 minutes vs 0 minute; 1 μM compound; 0.5 mg/mL liver microsomes; 37° C.
[3] = Determination of solubility in sodium phosphate buffers; details: for Solubility pH 2.1: pH 2.1 sodium phosphate buffer; for Solubility pH 7.4: pH 7.4 sodium phosphate buffer

SMILES	IC50 (IDH2-R140Q)	IC50 (IDH1-R132H)	Rat liver microsome stability [1]	Mouse liver microsome stability [2]	Solubility pH 2.1 [3]	Solubility pH 7.4 [3]
OC1C=C(c2nc(NC3CC(F)(F)C3)nc(NC3CC(F)(F)C3)n2)CCC1 (single isomer, unassigned) [150]	0.541 µM					
OC1C(F)=C(c2nc(NC3CC(F)(F)C3)nc(NC3CC(F)(F)C3)n2)CCC1(F)F (single isomer, unassigned) [237]	1.49 µM					
C[C@@H](Nc1nc(NC2CC(F)(F)C2)nc(C2=C(F)C(O)C(F)(F)CC2)n1)C(F)(F)F (stereo partly drawn) [Compound 259, 3-(4-((3,3-Difluorocyclobutyl)amino)-6-(((R)-1,1,1-trifluoropropan-2-yl)amino)-1,3,5-triazin-2-yl)-2,6,6-trifluorocyclohex-2-en-1-ol]	1.39 µM	3.51 µM				
CCCNc1nc(N[C@H](C)C(F)(F)F)nc(C2=C(F)C(O)C(F)(F)CC2)n1 (mixture of isomers) [Compound 210]	0.056 µM	1.38 µM				
C[C@@H](Nc1nc(N[C@H](C)C(F)(F)F)nc(C2=CC(O)C(F)(F)CC2)n1)C(F)(F)F (single isomer, unassigned) [292]	3.46 µM	3.64 µM				
CC(C)Nc1nc(NC2CC(F)(F)C2)nc(C2=C(F)C(O)C(F)(F)CC2)n1 (single isomer, unassigned) [272]	0.051 µM	2.09 µM				
CC(C)Nc1nc(NC2CC(F)(F)C2)nc(C2=C(F)C(O)C(F)(F)CC2)n1 (single isomer, unassigned) [273]	1.23 µM	> 10 µM				
[2H]C1([2H])CCC(c2nc(NC3CC(F)(F)C3)nc(N[C@@H](C)C(F)(F)F)n2)=C(F)C1([2H])O (single isomer, unassigned) [115]	0.059 µM					
[2H]C1([2H])CCC(c2nc(NC3CC(F)(F)C3)nc(NC3CC(F)(F)C3)n2)=C(F)C1([2H])O (single isomer, unassigned) [116]	2.62 µM					
CC(C)Nc1nc(N[C@H](C)C(F)(F)F)nc(C2=CC(O)CCC2)n1 (single isomer, unassigned) [147]			65.0%	48.1%		
[2H]C1(O)CCCC(c2nc(NC3CC(F)(F)C3)nc(NC3CC(F)(F)C3)n2)=C1F (single isomer, unassigned) [108]	2.23 µM					
[2H]C1([2H])CCC(c2nc(NC3CC(F)(F)C3)nc(N[C@@H](C)C(F)(F)F)n2)=C(F)C1([2H])O (single isomer, unassigned) [114]	1.72 µM					
CC(C)(C)ONc1nc(Nc2ccnc(C(F)(F)F)c2)nc(C2=C(F)C(O)C(F)(F)CC2)n1 (single isomer, unassigned) [286]	0.165 µM	> 10 µM				
C[C@H](Nc1nc(NC2CC(F)(F)C2)nc(C2=C(F)C(O)C(F)(F)CC2)n1)C(F)(F)F (mixture of isomers) [Compound 239]	0.025 µM	0.262 µM	100.0%	90.9%		
OC1CCCC(c2nc(NC3CC(F)(F)C3)nc(NC3CC(F)(F)C3)n2)=C1F (single isomer, unassigned) [104]	2.08 µM					
CC(C)(C)ONc1nc(Nc2ccnc(C(F)(F)F)c2)nc(C2=C(F)C(O)C(F)(F)CC2)n1 (single isomer, unassigned) [285]	0.034 µM	3.59 µM				
[2H]C1(O)C(F)=C(c2nc(NOC(C)(C)C)nc(Nc3ccnc(C(F)(F)F)c3)n2)CCC1(F)F (single isomer, unassigned) [288]	0.035 µM	2.69 µM				
OC1C=C(c2nc(NC3CC(F)(F)C3)nc(NC3CC(F)(F)C3)n2)CCC1 (single isomer, unassigned) [151]	0.039 µM	0.256 µM				
C[C@@H](Nc1nc(NCC(F)(F)F)nc(C2=C(F)C(O)C(F)(F)CC2)n1)C(F)(F)F (stereo partly shown)	0.078 µM	0.715 µM				
[2H]C1(O)C(F)=C(c2nc(NOC(C)(C)C)nc(Nc3ccnc(C(F)(F)F)c3)n2)CCC1(F)F (single isomer, unassigned) [287]	0.095 µM	> 10 µM				
CC(C)(C)ONc1nc(Nc2ccc3sncc3c2)nc(C2=C(F)C(O)CCC2)n1 (racemic) [Compound 34]	0.065 µM	> 10 µM				
OC1CCCC(c2nc(NC3CC(F)(F)C3)nc(NC3CC(F)(F)C3)n2)=C1F (single isomer, unassigned) [105]	0.04 µM	0.351 µM	84.0%	67.3%		
OC1C(F)=C(c2nc(NC3CC(F)(F)C3)nc(NC3CC(F)(F)C3)n2)CCC1(F)F (single isomer, unassigned) [236]	0.045 µM	0.252 µM	91.3%	83.9%		
[2H]C1(O)CCCC(c2nc(NC3CC(F)(F)C3)nc(NC3CC(F)(F)C3)n2)=C1F (single isomer, unassigned) [109]	0.057 µM	0.279 µM	85.4%	58.8%		
C[C@@H](Nc1nc(NC2CC2)nc(C2=C(F)C(O)C(F)(F)CC2)n1)C(F)(F)F (mixture of isomers) [Compound 238]	0.05 µM	2.62 µM				
[2H]C1([2H])CCC(c2nc(NC3CC(F)(F)C3)nc(NC3CC(F)(F)C3)n2)=C(F)C1([2H])O (single isomer, unassigned) [117]	0.095 µM					
C[C@@H](Nc1nc(N[C@H](C)C(F)(F)F)nc(C2=CC(O)C(F)(F)CC2)n1)C(F)(F)F (single isomer, unassigned) [291]	0.201 µM	0.179 µM	100.0%	98.9%		

Other lines, results leading:

IC50 (IDH2-R140Q)	IC50 (IDH1-R132H)	Rat liver microsome stability [1]	Mouse liver microsome stability [2]	Solubility pH 2.1 [3]	Solubility pH 7.4 [3]	SMILES
0.106 µM	0.272 µM					C[C@@H](Nc1nc(N[C@H](C)C(F)(F)F)nc(C2=C(F)C(O)CCCC2)n1)C(F)(F)F (single isomer, unassigned) [106]
3.39 µM	> 10 µM					CC(C)Nc1nc(N[C@@H](C)C(F)(F)F)nc(C2=C(F)C(O)CCC2)n1 (single isomer, unassigned) [119]
2.47 µM	2.48 µM					[2H]C1(O)C(F)=C(c2nc(N[C@H](C)C(F)(F)F)nc(N[C@H](C)C(F)(F)F)n2)CCC1(F)F (single isomer, unassigned) [250]
2.26 µM						[2H]C1(O)CCCC(c2nc(N[C@H](C)C(F)(F)F)nc(N[C@H](C)C(F)(F)F)n2)=C1F (single isomer, unassigned) [111]
0.07 µM	0.16 µM					[2H]C1(O)CCCC(c2nc(N[C@H](C)C(F)(F)F)nc(N[C@H](C)C(F)(F)F)n2)=C1F (single isomer, unassigned) [110]
0.177 µM	0.693 µM	66.8%	59.7%			C[C@@H](Nc1nc(N[C@H](C)C(F)(F)F)nc(C2=CC(O)CCC2)n1)C(F)(F)F (single isomer, unassigned) [149]
0.098 µM						[2H]C1([2H])CCC(c2nc(N[C@H](C)C(F)(F)F)nc(N[C@H](C)C(F)(F)F)n2)=C(F)C1([2H])O (single isomer, unassigned) [112]
1.56 µM						C[C@@H](Nc1nc(N[C@H](C)C(F)(F)F)nc(C2=CC(O)CCC2)n1)C(F)(F)F (single isomer, unassigned) [148]
2.91 µM						CC(C)Nc1nc(N[C@H](C)C(F)(F)F)nc(C2=C(F)C(O)CCC2)n1 (single isomer, unassigned) [100]
0.554 µM	1.75 µM					C[C@@H](Nc1nc(N[C@H](C)C(F)(F)F)nc(C2=C(F)C(O)CCCC2)n1)C(F)(F)F (single isomer, unassigned) [107]
0.08 µM	1.14 µM	88.0%	84.6%			CC(C)Nc1nc(N[C@H](C)C(F)(F)F)nc(C2=C(F)C(O)CCC2)n1 (single isomer, unassigned) [101]
1 µM	2.5 µM	89.7%	78.5%			C[C@@H](Nc1nc(N[C@H](C)C(F)(F)F)nc(C2=C(F)C(O)CCC2)n1)C(F)(F)F (single isomer, unassigned) [103]
0.068 µM	0.186 µM					C[C@@H](Nc1nc(NC2CC(F)(F)C2)nc(C2=C(F)C(O)CCC2)n1)C(F)(F)F (single isomer, unassigned) [121]
0.051 µM	0.232 µM	92.7%	86.2%	0.729 mg/mL	<0.005 mg/mL	C[C@@H](Nc1nc(N[C@H](C)C(F)(F)F)nc(C2=C(F)C(O)CCC2)n1)C(F)(F)F (single isomer, unassigned) [102]
0.072 µM	0.134 µM	98.0%	100.0%	0.036 mg/mL	0.011 mg/mL	[2H]C1(O)C(F)=C(c2nc(N[C@H](C)C(F)(F)F)nc(N[C@H](C)C(F)(F)F)n2)CCC1(F)F (single isomer, unassigned) [249]
0.106 µM	2.14 µM					CC(C)Nc1nc(N[C@@H](C)C(F)(F)F)nc(C2=C(F)C(O)CCC2)n1 (single isomer, unassigned) [118]
2.06 µM						[2H]C1([2H])CCC(c2nc(N[C@H](C)C(F)(F)F)nc(N[C@H](C)C(F)(F)F)n2)=C(F)C1([2H])O (single isomer, unassigned) [113]
2.4 µM						C[C@@H](Nc1nc(NC2CC(F)(F)C2)nc(C2=C(F)C(O)CCC2)n1)C(F)(F)F (single isomer, unassigned) [120]
